## Antibody variant affinities, Ab-95 light chain, assay 2

Values reported by Engelhart et al. 2022, doi:10.1038/s41597-022-01779-4 (FLAb copy).

Binding partner: SARS-CoV-2 spike HR2 peptide, sequence PDVDLGDISGINAS.

Ab-95 is the parent antibody, in scFv form: VH, then a 15-residue (Gly4Ser)3 linker, then VL. The heavy chain is unchanged in all variants.
VH: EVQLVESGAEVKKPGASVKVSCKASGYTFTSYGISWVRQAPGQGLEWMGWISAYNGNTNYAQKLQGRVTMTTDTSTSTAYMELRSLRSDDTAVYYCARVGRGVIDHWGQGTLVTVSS
VL: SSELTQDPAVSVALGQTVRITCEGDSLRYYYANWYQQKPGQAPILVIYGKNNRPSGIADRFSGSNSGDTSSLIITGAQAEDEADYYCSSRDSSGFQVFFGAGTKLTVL

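In library AAYL52, one, two or three CDR residues were substituted; doubles and triples were drawn at random. AlphaSeq pools MATa yeast showing the antibodies with MATalpha yeast showing the peptide. After mating in shaken culture at 30 °C for 16 h, diploids were selected and their barcode pairs sequenced. Read counts were normalised to the haploid input and turned into Kd by a linear fit to BCL2-family pairs of known affinity, for each replicate. The assay was run in three technical replicates.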

Variants are written as CDR1, CDR2 and CDR3 of the light chain (limits as in the source). Parent: EGDSLRYYYAN, GKNNRPS, SSRDSSGFQVF.
Values are log10 of the apparent Kd in nM; lower means stronger binding.
Where no diploid with the target was found in that replicate, the entry reads "n.d.": below detection, most likely a poor binder, though not proof of it.

CDR-L1,CDR-L2,CDR-L3,"replicates, log10 nM",signal with controls
EYDSLRYYYAN,GKQNRPS,ISRDSSGFQVF,2.75 2.26 2.81,2/9 (4.21)
EGDSLRYYYAN,GKNNRPS,SSRDSSGFQVD,3.20 2.75 2.41,5/9 (3.89)
EGDSLRYYYTN,GKNNRPS,SSRDSSGFFVT,3.42 2.35 2.95,2/9 (3.87)
LGQSLRYYYAN,GKNNNPS,SSRDSSGFQVF,3.21 n.d. n.d.,4/9 (4.10)
EGDSLRLYYAN,GKNTRPS,SSRDSSGGQVF,3.50 3.74 4.48,7/9 (3.93)
EGDSLRYYYKN,GKSNRPS,SSRDSSGFQVV,n.d. n.d. 3.13,2/9 (3.86)
EGDYLRYYYAT,GKNNRPS,SSRDSEGFQVF,n.d. n.d. n.d.,3/9 (3.41)
EGDSLRYYYAS,GKNNRPS,SSRDLSGFQVF,5.29 n.d. n.d.,2/9 (3.42)
EGDSLRYYYAN,GKNNRPS,SSNESSGFQVM,2.19 2.43 1.72,0/9
EGDSLRYYYAY,GKNNRPS,SSRDSFDFQVF,n.d. n.d. n.d.,2/9 (3.60)
EGWSLVYYYPN,GKNNRPS,SSRDSSGFQVF,4.11 4.38 3.39,1/9 (3.91)
EGDSLIYYYAN,GKNNRPS,IHRDSSGFQVF,3.19 n.d. n.d.,1/9 (2.87)
EGDSLRYYYAN,GKNNRQS,SSRCSSGFQMF,4.68 3.80 3.29,5/9 (4.14)
LGDSLRYYYAN,GKNERPS,SSRMSSGFQVF,n.d. n.d. n.d.,0/9
EGDPLRYYYAN,GGNNRPS,SSRDSSGFQVF,2.52 2.57 2.35,2/9 (3.09)
EGDYLRYYYDN,GKNHRPS,SSRDSSGFQVF,4.62 3.76 n.d.,6/9 (4.18)
EGDSLRYYYQW,GKNNRWS,SSRDSSGFQVF,3.50 n.d. n.d.,2/9 (3.44)
EGDSLRYYYAN,GKNERPS,SSRDSSGFQVF,1.28 1.15 1.17,1/9 (3.80)
EGDSLRYYYRN,GKNNRPT,SSRDSSGFQGF,n.d. 4.00 n.d.,4/9 (3.86)
EGDSLRYYYAN,GKKIRPS,SSRDSSGFQVV,3.93 3.58 n.d.,3/9 (3.28)
GGDSLRYYTAN,GKNNIPS,SSRDSSGFQVF,3.18 3.48 2.66,3/9 (3.87)
YNDSLRYYYAN,GKNNRPS,SSRDSIGFQVF,3.83 3.39 n.d.,5/9 (4.48)
EGDSLMYYYAN,GKHNRPS,GSRDSSGFQVF,n.d. 3.11 3.73,4/9 (3.69)
EGDSLRYYYAN,GKNNRPS,SSFDSQSFQVF,2.39 2.66 2.91,3/9 (4.00)
EGDSLRYYYAK,GKMNRPS,SSRGSSGFQVF,3.39 n.d. n.d.,3/9 (4.09)
EGDSGRYYYAN,CKNNRPS,SSRDSSGFQVN,n.d. n.d. n.d.,0/9
EGDSLRYTYAN,GKNNRPS,SSDDSSGFVVF,4.18 3.23 2.62,2/9 (4.05)
EGDSLRYYYAN,GTNNRPS,TSRDSSDFQVF,n.d. n.d. n.d.,2/9 (4.17)
EGDSLRYAYAN,GKNNRPS,SNRDPSGFQVF,2.72 2.01 3.13,0/9
EGDSLRYYYAN,GKNNRPS,SIRDSSGFQVT,4.67 3.53 4.03,1/9 (4.01)
EGDSMRYYYAN,GKNNRPS,SSRFSQGFQVF,2.89 2.85 n.d.,4/9 (4.02)
EGDSLLYQYAN,GKNNRPS,SYRDSSGFQVF,3.22 n.d. n.d.,3/9 (3.59)
EYDSLRYYYAN,GPPNRPS,SSRDSSGFQVF,4.61 5.02 n.d.,3/9 (3.93)
EGDSLRYDYAN,WKNNRPS,SSSDSSGFQVF,3.89 4.19 4.04,3/9 (4.10)
EGDSLRYYYAN,GKGNRPS,SSRESSGFWVF,3.16 n.d. 4.33,6/9 (4.07)
EGDSLTYYYAN,RKNNRPN,SSRDSSGFQVF,3.41 4.17 n.d.,2/9 (4.23)
EGDSMRQYYAN,GKNNRPS,SSRDSSGFQVW,3.30 4.13 2.62,3/9 (3.75)
EGDSDAYYYAN,GKNNRAS,SSRDSSGFQVF,3.76 4.12 4.61,6/9 (4.02)
EGDSLRYYYAN,DKNNRPS,SSRISSGFQQF,2.62 2.41 2.09,7/9 (4.14)
EGDSLRTYNAN,GKNNKPS,SSRDSSGFQVF,1.80 1.90 1.43,6/9 (4.65)
EGWSLRYYYAN,GKNNRPS,SSGDSYGFQVF,3.21 3.17 3.07,1/9 (3.79)
EGDSLRYEYQN,GRNNRPS,SSRDSSGFQVF,5.09 n.d. n.d.,2/9 (3.65)
EGDDLRYYYAN,GQNNRPS,SSRDSSGFQGF,n.d. 3.42 2.23,3/9 (4.16)
ESDSLRYYYAN,GKNNRPS,SSRDSSLFQVV,2.92 3.21 3.65,4/9 (3.90)
EGDSLRYYYAN,GKNNRPR,SSRDSIGFTVF,n.d. n.d. n.d.,1/9 (2.67)

Three control strains display no target. For library AAYL52, 28% of the pairings with them gave a signal, with a median of 3.91 and one signal in twenty below 2.90, so weak values seen in few replicates may be background. For each scFv, signals with the empty controls are counted beside the result, with their mean in brackets.
Parent in this assay: reference entry 2.31, copy in this library 2.25.